Assay results from ChEMBL document CHEMBL1143173, “2D Autocorrelation, CoMFA, and CoMSIA modeling of protein tyrosine kinases' inhibition by substituted pyrido[2,3-d]pyrimidine derivatives” (Bioorg Med Chem, 2008).

Assays:
[1] = Inhibition of PDGFR
[2] = target: Proto-oncogene tyrosine-protein kinase Src (Homo sapiens) (UniProt P12931); experiment: Inhibition of cSrc
[3] = Inhibition of FGFR

SMILES	log(10^6/IC50) [1]	log(10^6/IC50) [2]	log(10^6/IC50) [3]
CN1CCN(CCCNc2ncc3cc(-c4c(Cl)cccc4Cl)c(NC(=O)NCc4ccccc4)nc3n2)CC1	2.7	4.52	3.9
COc1ccc(NC(=O)Nc2nc3nc(NCCCN4CCN(C)CC4)ncc3cc2-c2c(Cl)cccc2Cl)cc1	3.1	–	3.86
